From patent publication US12692235B2, “Fused ring compound and application thereof” (WUHAN LL SCIENCE AND TECHNOLOGY DEVELOPMENT CO., LTD., priority 2019, dated 2026)

The chains behind the UniProt entries cited, without tags or fusion partners. Residues count along the entry.
UniProt Q99571, 1-404 isoform 2: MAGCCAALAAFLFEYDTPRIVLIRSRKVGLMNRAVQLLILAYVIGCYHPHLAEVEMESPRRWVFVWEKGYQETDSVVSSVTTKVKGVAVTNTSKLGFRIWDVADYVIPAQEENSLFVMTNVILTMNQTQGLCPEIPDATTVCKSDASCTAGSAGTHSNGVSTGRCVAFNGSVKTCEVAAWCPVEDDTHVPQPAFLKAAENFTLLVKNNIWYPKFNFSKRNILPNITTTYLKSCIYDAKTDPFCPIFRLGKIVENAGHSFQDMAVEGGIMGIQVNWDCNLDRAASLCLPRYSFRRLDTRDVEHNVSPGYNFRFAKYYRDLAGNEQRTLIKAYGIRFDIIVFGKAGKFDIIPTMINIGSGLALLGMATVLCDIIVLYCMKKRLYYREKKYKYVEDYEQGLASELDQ

Target: hP2X4 (human purinergic P2X receptor subtype 4) (Homo sapiens, UniProt Q99571)
Conditions: read-out: P2X4 IC50; HEK293 cells stably expressing hP2X4; agonist BZ-ATP 2.5 μM; FLIPR calcium

NS(=O)(=O)c1cc(NC(=O)Cc2ccccc2Cl)cc2c(C(F)(F)F)cncc12
IC50: < 0.01 µM
